We go through two molecules from paper PMC9478952.

Data set [1] concerns MOR KO mice injected with AAV-vector, AAV-WT, and AAV-Y7.43A. Put plainly: Basal pain threshold after 7 days of repeated dosing (hot plate). The conditions noted are these: twice daily dosing for 7 days; opioid-induced hyperalgesia.
For data set [2] the following is noted: clinical studies; ref Hertz, 2018; cited from earlier work.

Consider `CN1CC[C@]23c4c5ccc(O)c4O[C@H]2[C@@H](O)C=C[C@H]3[C@H]1C5.Cl`, for which the “basal pain thresholds on days 3, 5, and 7 compared with day 1 (in words)” value in data set [1] is recorded as “significantly decreased”.

Turning to `COc1ccsc1CNCC[C@@]1(c2ccccn2)CCOC2(CCCC2)C1`, the “therapeutic window in humans compared with morphine (in words)” value in data set [2] is given as “failed to demonstrate a significantly broader therapeutic window”.
